Experiments:
[1] = system: acetylcholine-induced bronchospasm; assay: Inhibition of acetylcholine-induced bronchospasm in the anaesthetised dog after administration by inhalation; conditions: eutomer:racemate weight ratio 1:2
CHO-HM receptors = conditions: compared with racemate

CC(C)[N+]1(C)C2CCC1CC(OC(=O)C(CO)c1ccccc1)C2 (single isomer, unassigned) [BIIH 150 BR, (endo, syn)-(-)-3-(3-hydroxy-l-oxo-2-phenylpropoxy)-8-methyl-8-(1-methylethyl)-8-azoniabicyclo [3,2,1]octane]
duration of activity compared with the racemate [1]: considerably longer duration of activity
potency compared with the racemate [1]: higher potency
affinity relative to the racemate (CHO-HM receptors): approximately twice as high

Source: patent US6299861A, “Ipratropium bromide enantiomer with prolonged duration of effect” (Boehringer Ingelheim KG, priority 1995, dated 2001)
